Here are results for one compound from patent US6576648B2, “Compound with growth hormone releasing properties” (Novo Nordisk A/S, priority 1999, dated 2003).

In data set [1] the test system is Carboxypeptidase mix: carboxypeptidase Y and B. Put plainly: Metabolic stability in carboxypeptidase mix (ESMS, SIM of molecular ion). As to conditions: carboxypeptidase Y and B 0.025 mg/ml, 50 mM ammoniumacetate pH 4.5, 37° C., 24 h, decrease in SIM signal.
Data set [2] relates to Pancreatic enzyme mix: trypsin, chymotrypsin and elastase. Put plainly: Metabolic stability in pancreatic enzyme mix (ESMS, SIM of molecular ion). As to conditions: chymotrypsin and elastase 0.025 mg/ml, 100 mM ammoniumbicarbonate pH 8.0, 37° C., 24 h, decrease in SIM signal.

Molecules are shown by their SMILES.

As for `CSCC[C@H](NC(=O)[C@H](CC(C)C)NC(=O)[C@H](Cc1c[nH]c2ccccc12)NC(=O)[C@H](CCC(N)=O)NC(=O)[C@@H](NC(=O)[C@H](Cc1ccccc1)NC(=O)[C@H](CC(=O)O)NC(=O)[C@H](CCC(N)=O)NC(=O)[C@H](C)NC(=O)[C@H](CCCN=C(N)N)NC(=O)[C@H](CCCN=C(N)N)NC(=O)[C@H](CO)NC(=O)[C@H](CC(=O)O)NC(=O)[C@H](CC(C)C)NC(=O)[C@H](Cc1ccc(O)cc1)NC(=O)[C@H](CCCCN)NC(=O)[C@H](CO)NC(=O)[C@H](Cc1ccc(O)cc1)NC(=O)[C@H](CC(=O)O)NC(=O)[C@H](CO)NC(=O)[C@@H](NC(=O)[C@H](Cc1ccccc1)NC(=O)[C@@H](NC(=O)CNC(=O)[C@H](CCC(N)=O)NC(=O)[C@H](CO)NC(=O)[C@@H](N)Cc1c[nH]cn1)[C@@H](C)O)[C@@H](C)O)C(C)C)C(=O)N[C@@H](CC(N)=O)C(=O)N[C@H](C(=O)O)[C@@H](C)O` [Glucagon], the “Stability in Carboxypeptidase mix” value in data set [1] is listed as “− (Unstable (more than 20% decrease in SIM signal after 24 h in degradation solution))”. Further, the “Stability in Pan. Enzyme mix” value in data set [2] is “− (Unstable (more than 20% decrease in SIM signal after 24 h in degradation solution))”.
